For the test, the target named is Mu-type opioid receptor (Homo sapiens, UniProt P35372). The test can be described thus: Human Mu-Opioid Peptide (hMOP) Receptor Binding Assay: The hMOP receptor binding assay was performed as homogeneous SPA-assay (scintillation proximity assay) using the assay buffer 50 mM TRIS-HCl (pH 7.4) supplemented with 0.052 mg/ml bovine serum albumin (Sigma-Aldrich Co., St. Louis, Mo.). The final assay volume (250 μl/well) included 1 nM of [N-allyl-2,3-3H]naloxone as ligand (PerkinElmer Life.

Chains of the proteins cited; added tags and fusions are not shown.
UniProt P35372, whole entry, looked up: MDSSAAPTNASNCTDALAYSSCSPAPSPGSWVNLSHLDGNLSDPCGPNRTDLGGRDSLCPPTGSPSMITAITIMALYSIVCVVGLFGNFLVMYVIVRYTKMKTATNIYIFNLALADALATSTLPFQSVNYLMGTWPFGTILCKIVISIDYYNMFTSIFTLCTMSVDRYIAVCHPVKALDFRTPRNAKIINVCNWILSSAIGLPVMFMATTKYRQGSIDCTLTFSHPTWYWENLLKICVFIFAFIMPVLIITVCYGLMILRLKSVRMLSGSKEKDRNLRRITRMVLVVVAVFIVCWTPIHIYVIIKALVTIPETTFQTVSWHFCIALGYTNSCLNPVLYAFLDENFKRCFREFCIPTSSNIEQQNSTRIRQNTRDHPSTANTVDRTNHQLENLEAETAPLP

Each structure is given as a SMILES string. Several values for one entry are separate records, joined by “and”; a condition that tells them apart may be missing. Identical values can stand only once.

Compound `CN(C)[C@]1(c2ccccc2)CC[C@]2(CC1)CN(CC(=O)Nc1cccnc1)C(=O)N2CC1(O)CCC1` showed a Ki of 41 nM. `CN(C)[C@]1(c2ccccc2)CC[C@]2(CC1)CN(CC(=O)Nc1nccc(C#N)n1)C(=O)N2CC1CCC1` had a Ki of 19.5 nM. Then `COc1ccc(NC(=O)CN2C[C@]3(CC[C@](c4ccccc4)(N(C)C)CC3)N(CC3CCC3)C2=O)nn1`, with 48.5 nM; and `CN(C(=O)CN1C[C@]2(CC[C@](c3ccccc3)(N(C)C)CC2)N(CC2CCC2)C1=O)C(C)(C)C(N)=O`, with 190 nM. Regarding `COc1ccnc(NC(=O)CN2C[C@]3(CC[C@](c4ccccc4)(N(C)C)CC3)N(CC3CCC3)C2=O)c1`, the Ki was 175 nM and 74.5 nM. Regarding `COCCOCCNC(=O)CN1C[C@]2(CC[C@](c3ccccc3)(N(C)C)CC2)N(CC2CCC2)C1=O`, the Ki stood at 12.5 nM. This lies in the double-digit nanomolar range.

For `CN[C@]1(c2ccccc2)CC[C@]2(CC1)CN(CC(=O)NCC(=O)N(C)C)C(=O)N2CC1CCC1`, affinity was put at a Ki of 200 nM. Take `CNC(=O)C(C)(C)NC(=O)CN1C[C@]2(CC[C@](c3ccccc3)(N(C)C)CC2)N(CC2CCC2)C1=O`: the Ki was determined as 118 nM. This Ki lies about 1.7-fold lower than the previous one.

Take `CN(C)[C@]1(c2ccccc2)CC[C@]2(CC1)CN(CC(=O)Nc1ncc(O)cn1)C(=O)N2CC1CCC1`: the Ki is 73.5 nM. This Ki lies about 1.6-fold lower than the previous one. Consider `COc1cnc(NC(=O)CN2C[C@]3(CC[C@](c4ccccc4)(N(C)C)CC3)N(CC3CCC3)C2=O)cn1`, for which the Ki was 28.2 nM. Then `CN(C)[C@]1(c2ccccc2)CC[C@]2(CC1)CN(CC(=O)NCC1CCS(=O)(=O)CC1)C(=O)N2CC1CCC1`, with 25 nM; and `CN(C)[C@]1(c2ccccc2)CC[C@]2(CC1)CN(CC(=O)NCCNS(C)(=O)=O)C(=O)N2CC1CCC1`, with 43.5 nM; and `CN(C)[C@]1(c2ccccc2)CC[C@]2(CC1)CN(CC(=O)NCC(N)=O)C(=O)N2CC1(C)CCC1`, with 72.5 nM. The value for `CN(C)[C@]1(c2ccccc2)CC[C@]2(CC1)CN(CC(=O)NCC(N)=O)C(=O)N2CC1CCC1` was 23.3 nM and 61.5 nM. In turn, `Cc1ncccc1NC(=O)CN1C[C@]2(CC[C@](c3ccccc3)(N(C)C)CC2)N(CC2CCC2)C1=O` showed a Ki of 15 nM.

`COc1cccc(NC(=O)CN2C[C@]3(CC[C@](c4ccccc4)(N(C)C)CC3)N(CC3CCC3)C2=O)n1`: the Ki was 220 nM. The value for `CN(C)[C@]1(c2ccccc2)CC[C@]2(CC1)CN(CC(=O)N1CCC(C)(O)CC1)C(=O)N2CC1(O)CCC1` was 325 nM. Then `COc1cnc(NC(=O)CN2C[C@]3(CC[C@](c4ccccc4)(N(C)C)CC3)N(CC3CCC3)C2=O)nc1`, with 43 nM; and `CN(C)[C@]1(c2ccccc2)CC[C@]2(CC1)CN(CC(=O)Nc1cccc(O)n1)C(=O)N2CC1CCC1`, with 23 nM; and `CN(CC(N)=O)C(=O)CN1C[C@]2(CC[C@](c3ccccc3)(N(C)C)CC2)N(CC2CCC2)C1=O`, with 34.2 nM and 83.5 nM.

Consider `CN(CC(N)=O)C(=O)CN1C[C@]2(CC[C@](c3ccccc3)(N(C)C)CC2)N(CC2CC2)C1=O`, for which the Ki was 300 nM. Then `COC(=O)c1cccc(NC(=O)CN2C[C@]3(CC[C@](c4ccccc4)(N(C)C)CC3)N(CC3CCC3)C2=O)n1`, with 160 nM.

Compound `CN(C)[C@]1(c2ccccc2)CC[C@]2(CC1)CN(CC(=O)N1CCC(C(N)=O)CC1)C(=O)N2CC1CC1` returned a Ki of 240 nM.

Compound `CN(C)[C@]1(c2ccccc2)CC[C@]2(CC1)CN(CC(=O)Nc1cncnc1)C(=O)N2CC1CCC1` registered a Ki of 26.5 nM.

`Cc1cccnc1NC(=O)CN1C[C@]2(CC[C@](c3ccccc3)(N(C)C)CC2)N(CC2CCC2)C1=O` showed a Ki of 49 nM. Consider `COCCOCCOCCNC(=O)CN1C[C@]2(CC[C@](c3ccccc3)(N(C)C)CC2)N(CC2CCC2)C1=O`, for which the affinity, expressed as Ki, was 25.5 nM. This Ki lies about 1.9-fold lower than the previous one. The value for `CN(C)[C@]1(c2ccccc2)CC[C@]2(CC1)CN(CC(=O)NCC1(O)CCCC1)C(=O)N2CC1CCC1` was 15 nM. `CNC(=O)CNC(=O)CN1C[C@]2(CC[C@](c3ccccc3)(N(C)C)CC2)N(CC2CCC2)C1=O`: the Ki was 21.2 nM and 63 nM. `COC(=O)c1ccc(NC(=O)CN2C[C@]3(CC[C@](c4ccccc4)(N(C)C)CC3)N(CC3CCC3)C2=O)nc1` displayed a Ki of 150 nM.

With `COCCOCCOCCOCCOCCOCCOCCNC(=O)CN1C[C@]2(CC[C@](c3ccccc3)(N(C)C)CC2)N(CC2CCC2)C1=O`, the Ki is 206 nM and 230 nM. Then `CN(C)[C@]1(c2ccccc2)CC[C@]2(CC1)CN(CC(=O)Nc1ccc(F)nc1)C(=O)N2CC1CCC1`, with 47 nM; and `CSc1cccc(NC(=O)CN2C[C@]3(CC[C@](c4ccccc4)(N(C)C)CC3)N(CC3CCC3)C2=O)n1`, with 125 nM. The value for `CN(C)[C@]1(c2ccccc2)CC[C@@]2(CC1)CN(CC(=O)N1CCOCC1)C(=O)N2CC1CC1` was 15.5 nM; that for `CN(C)[C@]1(c2ccccc2)CC[C@]2(CC1)CN(CC(=O)NCCOCCO)C(=O)N2CC1CCC1` was 51 nM. The value for `CCN[C@]1(c2ccccc2)CC[C@@]2(CC1)CN(CC(=O)N1CCS(=O)(=O)CC1)C(=O)N2` was 625 nM; that for `CN(C)[C@]1(c2ccccc2)CC[C@]2(CC1)CN(CC(=O)NC1(C#N)CC1)C(=O)N2CC1CCC1` was 86 nM; that for `CN(C)[C@]1(c2ccccc2)CC[C@]2(CC1)C(=O)N(CC(=O)N1CCS(=O)(=O)CC1)C(=O)N2CC1(O)CCC1` was 38 nM. `CNC(=O)CN1C[C@]2(CC[C@](c3ccccc3)(N(C)C)CC2)N(CC2(C#N)CCC2)C1=O` came in with a Ki of 56 nM. The Ki values of the last two compounds are within 1.5-fold of each other. `CN(C)[C@]1(c2ccccc2)CC[C@]2(CC1)CN(CC(=O)NCC1(O)CC1)C(=O)N2CC1CCC1` had a Ki of 106 nM. As to `CN(C)[C@]1(c2ccccc2)CC[C@]2(CC1)CN(CC(=O)Nc1cc(S(C)(=O)=O)ccn1)C(=O)N2CC1CCC1`, affinity was put at a Ki of 60.5 nM.

Take `Cc1ccccc1CNC(=O)CN1C[C@]2(CC[C@](c3ccccc3)(N(C)C)CC2)N(CC2CCC2)C1=O`: the affinity, expressed as Ki, was 7.2 nM. Then `CN[C@]1(c2ccccc2)CC[C@]2(CC1)CN(CC(=O)N(C)CC(N)=O)C(=O)N2CC1CCC1`, with 140 nM. The value for `Cc1ccnc(NC(=O)CN2C[C@]3(CC[C@](c4ccccc4)(N(C)C)CC3)N(CC3CCC3)C2=O)c1` was 54 nM. The value for `Cc1ccc(NC(=O)CN2C[C@]3(CC[C@](c4ccccc4)(N(C)C)CC3)N(CC3CCC3)C2=O)cn1` was 21.5 nM; that for `CN(C)[C@]1(c2ccccc2)CC[C@]2(CC1)CN(CC(=O)NCc1cnccn1)C(=O)N2CC1CCC1` was 12.5 nM; that for `CN(C)[C@]1(c2ccccc2)CC[C@]2(CC1)CN(CC(=O)Nc1cnc(C#N)nc1)C(=O)N2CC1CCC1` was 19.5 nM. As to `CCN(C)[C@]1(c2ccccc2)CC[C@]2(CC1)CN(CC(=O)Nc1cccc(OC)n1)C(=O)N2CC1CCC1`, affinity was put at a Ki of 680 nM.

Compound `Cc1ncc(NC(=O)CN2C[C@]3(CC[C@](c4ccccc4)(N(C)C)CC3)N(CC3CCC3)C2=O)cn1` had a Ki of 21.5 nM. Against the preceding compound, the Ki is about 32-fold lower. The value for `Cc1ccc(NC(=O)CN2C[C@]3(CC[C@](c4ccccc4)(N(C)C)CC3)N(CC3CCC3)C2=O)nc1` was 44.5 nM; that for `CN(C)[C@]1(c2ccccc2)CC[C@]2(CC1)CN(CC(=O)NCCS(C)(=O)=O)C(=O)N2CC1CCC1` was 13.7 nM and 31.7 nM.

`CC(=O)NCCNC(=O)CN1C[C@]2(CC[C@](c3ccccc3)(N(C)C)CC2)N(CC2CCC2)C1=O`: the affinity corresponds to a Ki of 37.7 nM.

As to `CN(C)[C@]1(c2ccccc2)CC[C@]2(CC1)CN(CC(=O)Nc1ncccc1F)C(=O)N2CC1CCC1`, the affinity corresponds to a Ki of 45 nM.

In turn, `CN(C)[C@]1(c2ccccc2)CC[C@]2(CC1)CN(CC(=O)NCC(N)=O)C(=O)N2CC1CC1` registered a Ki of 125 nM. Regarding `CN(C)[C@]1(c2ccccc2)CC[C@]2(CC1)CN(CC(=O)NCC(N)=O)C(=O)N2CC1(O)CCC1`, the Ki was determined as 106 nM. The Ki values of the last two compounds are within 1.5-fold of each other. The value for `CNC(=O)c1cccc(NC(=O)CN2C[C@]3(CC[C@](c4ccccc4)(N(C)C)CC3)N(CC3CCC3)C2=O)n1` was 140 nM; that for `CNC(=O)C(C)(C)N(C)C(=O)CN1C[C@]2(CC[C@](c3ccccc3)(N(C)C)CC2)N(CC2CCC2)C1=O` was 390 nM. For `CN(C)[C@]1(c2ccccc2)CC[C@]2(CC1)CN(CC(=O)NCCC#N)C(=O)N2CC1CCC1`, the Ki was 25.7 nM. In the case of `CN(C)[C@]1(c2ccccc2)CC[C@]2(CC1)CN(CC(=O)Nc1ccc(S(C)(=O)=O)nc1)C(=O)N2CC1CCC1`, the Ki was found to be 24.5 nM. Then `CN(C)[C@]1(c2ccccc2)CC[C@]2(CC1)CN(CC(=O)NCc1cccnn1)C(=O)N2CC1CCC1`, with 43 nM. In turn, `CN(CCO)C(=O)CN1C[C@]2(CC[C@](c3cccc(F)c3)(N(C)C)CC2)N(CC2CCC2)C1=O` showed a Ki of 185 nM.

Take `CN(C)[C@]1(c2ccccc2)CC[C@]2(CC1)CN(CC(=O)N1CCCC(O)C1)C(=O)N2CC1CCC1` (some centres not stated): the Ki came to 22 nM.

Compound `CN(C)[C@]1(c2ccccc2)CC[C@]2(CC1)CN(CC(=O)Nc1ccnc(C#N)n1)C(=O)N2CC1CCC1` gave a Ki of 72 nM. This Ki lies about 3.3-fold higher than the previous one.

For the compound `CN(C)[C@]1(c2ccccc2)CC[C@]2(CC1)CN(CC(=O)Nc1cccc(C(N)=O)n1)C(=O)N2CC1CCC1`, the Ki is 72 nM.

In turn, `CN(C)[C@]1(c2ccccc2)CC[C@]2(CC1)CN(CC(=O)Nc1ccc(O)cn1)C(=O)N2CC1CCC1` gave a Ki of 30 nM. The compound `CN(C)[C@]1(c2ccccc2)CC[C@]2(CC1)CN(CC(=O)Nc1ccc(F)cn1)C(=O)N2CC1CCC1` displayed a Ki of 43 nM. This Ki and that of the compound before are within 1.5-fold of each other.

Take `COCCCN1C(=O)N(CC(=O)N2CCNC(=O)C2)C[C@]12CC[C@](c1ccccc1)(N(C)C)CC2`: the Ki stood at 320 nM. `CN(C)[C@]1(c2ccccc2)CC[C@]2(CC1)CN(CC(=O)NCc1ncco1)C(=O)N2CC1CCC1`: the Ki was determined as 11 nM.

With `CN(C)[C@]1(c2ccccc2)CC[C@]2(CC1)CN(CC(=O)NCC(=O)N1CCOCC1)C(=O)N2CC1CCC1`, the Ki worked out at 73.7 nM.

In turn, `CN(C)[C@]1(c2ccccc2)CC[C@]2(CC1)CN(CC(=O)NCc1ccnnc1)C(=O)N2CC1CCC1` had a Ki of 19.5 nM. Compared with the last compound, the Ki is about 3.8-fold lower. The value for `CN[C@]1(c2ccccc2)CC[C@]2(CC1)CN(CC(=O)NCCO)C(=O)N2CC1CCC1` was 114 nM; that for `CN[C@]1(c2ccccc2)CC[C@]2(CC1)CN(CC(=O)N(C)C(C)(C)C(N)=O)C(=O)N2CC1CCC1` was 150 nM. The value for `CN(CCO)C(=O)CN1C[C@]2(CC[C@](c3ccc(F)cc3)(N(C)C)CC2)N(CC2CCC2)C1=O` was 260 nM.
